Biological target: MAO-B (Bos taurus, UniProt P56560)
Assay: Monoamine oxidase B substrate assay, beef liver mitochondria, fluorescence detection of indole product
Settings: known inhibitor of MAO-B added

Protein sequences, listed by entry. Tags and fused reporters are not part of them.
UniProt P56560, whole entry: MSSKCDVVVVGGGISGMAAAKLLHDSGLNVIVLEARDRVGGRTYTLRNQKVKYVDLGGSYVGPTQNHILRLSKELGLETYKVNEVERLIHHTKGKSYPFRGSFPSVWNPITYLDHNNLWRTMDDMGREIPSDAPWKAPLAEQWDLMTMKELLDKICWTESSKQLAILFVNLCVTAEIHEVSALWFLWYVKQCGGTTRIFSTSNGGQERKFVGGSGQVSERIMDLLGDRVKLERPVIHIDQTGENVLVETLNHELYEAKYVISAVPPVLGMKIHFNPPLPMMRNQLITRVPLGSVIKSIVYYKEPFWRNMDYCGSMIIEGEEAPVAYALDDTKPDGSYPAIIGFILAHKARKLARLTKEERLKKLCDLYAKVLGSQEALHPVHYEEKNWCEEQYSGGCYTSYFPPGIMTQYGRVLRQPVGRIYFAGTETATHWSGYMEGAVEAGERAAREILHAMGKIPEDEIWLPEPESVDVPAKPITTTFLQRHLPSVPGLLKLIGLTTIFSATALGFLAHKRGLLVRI

C#CCN(C)[C@H](C)Cc1ccccc1 [Probe 1-deprenyl, 1-deprenyl, reference compound]
effect on conversion of probe 9 by the mitochondria: abolished

— patent publication US20080194522A1, “Development of Fluorogenic Substrates For Monoamine Oxidases (Mao-A and Mao-B)” (priority 2004, published 2008)
